This is an account of results in ChEMBL document CHEMBL4270649, “Development of novel amide-derivatized 2,4-bispyridyl thiophenes as highly potent and selective Dyrk1A inhibitors. Part II: Identification of the cyclopropylamide moiety as a key modification” (Eur J Med Chem, 2018).

For the experiment, the species on record is Homo sapiens. Put plainly: Selectivity ratio of IC50 for human GST-tagged haspin expressed in baculovirus expression system to IC50 for recombinant human N-terminal His6-tagged DYRK1A expressed in Escherichia coli BL21(DE3).

Take `O=C(Nc1cncc(-c2cc(-c3cccnc3)cs2)c1)C1CC1`: the Ratio IC50 stood at 24.
